pKi: −log10 of the molar value.
Assays:
[1] = biological target: T1, Delta-type opioid receptor (Homo sapiens, UniProt P41143); assay: Binding affinity against Opioid receptor delta 1 using [3H]DADLE as radioligand in guinea pig brain
[2] = biological target: T1, Delta-type opioid receptor; assay: Binding affinity against delta Opioid receptor delta 1 using [3H]DADLE as radioligand in guinea pig brain
[3] = biological target: Gastrin/cholecystokinin type B receptor (Homo sapiens, UniProt P32239); assay: Binding affinity against Cholecystokinin type B receptor using [3H](MeNLE28,31)-CCK-8 as radioligand in guinea pig cerebral cortex.

By UniProt entry, the sequences of proteins in these tests, tags left out. Where a name states a change or a piece, a line headed by the entry shows the natural chain unless it says otherwise.
UniProt P41143, whole entry, looked up: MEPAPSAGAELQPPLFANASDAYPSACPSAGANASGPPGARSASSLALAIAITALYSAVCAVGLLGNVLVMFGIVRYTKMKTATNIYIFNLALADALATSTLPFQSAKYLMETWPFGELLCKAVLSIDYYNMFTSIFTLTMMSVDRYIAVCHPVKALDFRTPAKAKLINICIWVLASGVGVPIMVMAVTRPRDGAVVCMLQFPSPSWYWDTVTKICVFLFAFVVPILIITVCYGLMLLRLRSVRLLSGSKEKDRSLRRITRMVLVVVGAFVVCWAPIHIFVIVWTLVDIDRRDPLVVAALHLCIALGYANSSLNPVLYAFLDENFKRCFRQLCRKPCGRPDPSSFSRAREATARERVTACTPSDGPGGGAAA
UniProt P32239: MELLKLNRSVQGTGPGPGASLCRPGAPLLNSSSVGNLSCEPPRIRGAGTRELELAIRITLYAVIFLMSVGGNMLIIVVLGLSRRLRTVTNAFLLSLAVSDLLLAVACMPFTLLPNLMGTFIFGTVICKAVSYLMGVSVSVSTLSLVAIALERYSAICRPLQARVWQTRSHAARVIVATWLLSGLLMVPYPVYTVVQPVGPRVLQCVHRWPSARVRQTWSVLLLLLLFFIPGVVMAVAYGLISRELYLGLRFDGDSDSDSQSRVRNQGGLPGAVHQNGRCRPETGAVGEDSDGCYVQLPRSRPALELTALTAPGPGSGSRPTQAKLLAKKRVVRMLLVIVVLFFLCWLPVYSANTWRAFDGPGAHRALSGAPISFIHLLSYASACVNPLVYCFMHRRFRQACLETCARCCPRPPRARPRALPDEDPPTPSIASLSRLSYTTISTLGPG

CN1c2ccc(Cl)cc2C(c2ccccc2)=NCC1CCNC(=O)c1ccccc1F (configuration not stated)
pKi [1]: < 6.00

CN1c2ccccc2C(c2ccccc2)=NCC1CCNC(=O)c1ccccc1F (configuration not stated)
pKi [1]: < 6.52

CN1c2ccccc2C(c2ccccc2)=NCC1CCNC(=O)c1ccc(F)cc1 (configuration not stated)
pKi [1]: 6.56

CN1c2ccc(Cl)cc2C(c2ccccc2)=NCC1CCNC(=O)c1ccc(F)cc1 (configuration not stated)
pKi [1]: 6.00

CN1c2ccc(Cl)cc2C(c2ccccc2)=NCC1CCNC(=O)c1ccc(Cl)cc1 (configuration not stated)
pKi [2]: < 6.00

CN1c2ccc(Cl)cc2C(c2ccccc2)=NCC1CCNC(=O)c1cc2ccccc2[nH]1 (configuration not stated)
pKi [2]: < 6.00

CN1c2ccccc2C(c2ccccc2)=NCC1CCNC(=O)c1cccs1 (configuration not stated)
pKi [3]: 4.89 | pKi [1]: 6.98

CN1c2ccccc2C(c2ccccc2F)=NCC1CNC(=O)c1ccsc1 (configuration not stated)
pKi [3]: < 4.00 | pKi [1]: 6.82

CN1c2ccc(Cl)cc2C(c2ccccc2)=NCC1CCNC(=O)c1cccs1 (configuration not stated)
pKi [3]: 4.77 | pKi [1]: < 6.00

Source: BindingDB's records for 8632410
